For one test, the target named is dopamine-D2 receptor (Rattus norvegicus, UniProt P61169). The test can be described thus: Adenylate cyclase activity in membranes from GH4ZR7 cells. Format: biochemical. The arrangement: Full-length dopamine-D2 cDNA (17) was excised from λGT10 with Sal I; expressed in transfected cells. To be noted: 10 μM forskolin, experiments shown in FIG. 17.
Test [1] addresses T1, rat dopamine D-2 receptor (Rattus norvegicus, UniProt P61169). The conditions noted are these: percent inhibition of total activity with 10 μM forskolin.
For test [2], the target named is T1, rat dopamine D-2 receptor. The conditions noted are these: single experiment FIG. 9A.

Amino acid sequences for entries named in this document (tags omitted). Residues count along the entry.
UniProt P61169, 1-415 isoform P61169-2: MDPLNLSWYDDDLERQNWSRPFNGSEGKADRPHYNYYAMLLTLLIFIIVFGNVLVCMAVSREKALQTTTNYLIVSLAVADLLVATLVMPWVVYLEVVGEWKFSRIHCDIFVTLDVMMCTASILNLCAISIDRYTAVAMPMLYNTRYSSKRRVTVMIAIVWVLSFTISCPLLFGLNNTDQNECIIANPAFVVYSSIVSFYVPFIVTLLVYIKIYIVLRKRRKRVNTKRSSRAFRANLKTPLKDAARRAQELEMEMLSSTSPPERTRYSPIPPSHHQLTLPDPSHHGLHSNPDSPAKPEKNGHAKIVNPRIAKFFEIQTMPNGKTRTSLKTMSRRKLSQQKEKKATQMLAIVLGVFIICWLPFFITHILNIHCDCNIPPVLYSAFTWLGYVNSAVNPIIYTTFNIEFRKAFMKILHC

In the case of `CCCN1CCCC(c2cccc(O)c2)C1` (single isomer, unassigned; (+)) [(+)3-PPP, 3-(3-hydroxyphenyl)-N-n-propylpiperidine], the maximal inhibition at dopamine-D2 receptor stood at 40%. In addition, in test [1], the “Max (maximal inhibition of adenylate cyclase activity)” value amounted to 16 ± 3%. This molecule yielded a Hill coefficient in test [2] of 1.05.

For the origin of these results see patent publication US6342360B1 (priority 1988, dated 2002).
